Data reported in ChEMBL document CHEMBL1126935, “N-acyl-L-tryptophan benzyl esters: potent substance P receptor antagonists” (J Med Chem, 1993).
pIC50: −log10 of the molar value.

Protein sequences, listed by entry. Tags and fused reporters are not part of them.
UniProt P25103, whole entry: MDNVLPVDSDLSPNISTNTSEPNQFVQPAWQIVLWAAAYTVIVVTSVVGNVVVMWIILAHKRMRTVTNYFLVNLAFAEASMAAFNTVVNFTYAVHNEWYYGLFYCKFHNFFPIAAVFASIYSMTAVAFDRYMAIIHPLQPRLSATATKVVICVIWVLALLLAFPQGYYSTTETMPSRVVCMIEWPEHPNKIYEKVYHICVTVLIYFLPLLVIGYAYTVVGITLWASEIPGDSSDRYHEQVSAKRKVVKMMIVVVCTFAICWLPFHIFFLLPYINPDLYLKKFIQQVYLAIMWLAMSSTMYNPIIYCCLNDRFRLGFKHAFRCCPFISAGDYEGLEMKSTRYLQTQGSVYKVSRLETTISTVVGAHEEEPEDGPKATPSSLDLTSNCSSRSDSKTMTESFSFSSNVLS

Molecular target: Substance-P receptor (Homo sapiens, UniProt P25103)
Assay: Tested against cloned human NK1 receptor by displacement of 125 I -labeled substance P expressed in CHO cells
Type: cell-based

- pIC50: 6.88
SMILES: Cc1cc(C)cc(COC(=O)[C@H](Cc2c[nH]c3ccccc23)NC(=O)OC(C)(C)C)c1
